{"source": "patent US20040006214A1", "target": "hepatitis C virus in patient serum", "assay": "immobilized adsorbent shaken with HCV patient serum 37 C 2 h; HCV RNA in supernatant against saline control"}
{"substance": "protein A (Sigma) (from UniProt P38507 37-477)", "values": [{"measurement": "Adsorption rate (%)", "value": 66, "unit": "%"}]}
